Measured values from patent US9505716B2, “Pyrrolidine triple reuptake inhibitors” (SUNOVION PHARMACEUTICALS INC., priority 2009, dated 2016).

The chains behind the UniProt entries cited, without tags or fusion partners.
UniProt P31645, whole entry, looked up: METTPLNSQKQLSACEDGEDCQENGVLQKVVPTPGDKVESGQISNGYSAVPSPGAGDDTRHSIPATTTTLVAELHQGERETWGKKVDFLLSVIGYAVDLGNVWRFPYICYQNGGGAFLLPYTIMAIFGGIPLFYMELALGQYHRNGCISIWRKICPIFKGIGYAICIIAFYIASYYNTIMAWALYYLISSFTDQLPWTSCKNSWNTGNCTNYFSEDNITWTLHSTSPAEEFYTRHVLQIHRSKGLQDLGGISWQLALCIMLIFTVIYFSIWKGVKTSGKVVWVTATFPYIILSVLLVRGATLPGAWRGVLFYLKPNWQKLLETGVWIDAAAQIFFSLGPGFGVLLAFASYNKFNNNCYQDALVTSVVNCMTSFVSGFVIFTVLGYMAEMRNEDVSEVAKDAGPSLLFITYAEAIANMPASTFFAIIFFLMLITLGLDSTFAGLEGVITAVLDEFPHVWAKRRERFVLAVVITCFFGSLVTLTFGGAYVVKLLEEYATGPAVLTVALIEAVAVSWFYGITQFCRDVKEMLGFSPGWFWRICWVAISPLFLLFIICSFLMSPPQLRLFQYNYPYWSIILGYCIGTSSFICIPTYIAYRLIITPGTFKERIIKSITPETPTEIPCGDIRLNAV
UniProt P23975, whole entry, looked up: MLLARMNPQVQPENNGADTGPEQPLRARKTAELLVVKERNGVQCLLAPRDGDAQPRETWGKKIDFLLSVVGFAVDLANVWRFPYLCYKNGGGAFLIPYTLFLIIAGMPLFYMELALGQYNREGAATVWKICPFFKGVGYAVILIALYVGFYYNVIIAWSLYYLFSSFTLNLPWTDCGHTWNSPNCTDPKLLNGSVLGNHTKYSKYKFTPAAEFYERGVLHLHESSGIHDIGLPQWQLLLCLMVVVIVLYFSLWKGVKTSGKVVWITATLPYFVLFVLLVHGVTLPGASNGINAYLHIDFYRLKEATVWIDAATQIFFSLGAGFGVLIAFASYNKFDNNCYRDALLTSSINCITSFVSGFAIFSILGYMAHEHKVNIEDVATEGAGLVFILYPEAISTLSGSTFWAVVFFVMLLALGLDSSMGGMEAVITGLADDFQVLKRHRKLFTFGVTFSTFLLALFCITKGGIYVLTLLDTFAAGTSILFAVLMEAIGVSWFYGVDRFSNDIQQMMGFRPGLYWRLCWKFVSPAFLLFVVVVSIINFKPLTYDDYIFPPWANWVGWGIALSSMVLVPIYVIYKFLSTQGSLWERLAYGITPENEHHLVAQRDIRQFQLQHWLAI
UniProt Q01959, whole entry, looked up: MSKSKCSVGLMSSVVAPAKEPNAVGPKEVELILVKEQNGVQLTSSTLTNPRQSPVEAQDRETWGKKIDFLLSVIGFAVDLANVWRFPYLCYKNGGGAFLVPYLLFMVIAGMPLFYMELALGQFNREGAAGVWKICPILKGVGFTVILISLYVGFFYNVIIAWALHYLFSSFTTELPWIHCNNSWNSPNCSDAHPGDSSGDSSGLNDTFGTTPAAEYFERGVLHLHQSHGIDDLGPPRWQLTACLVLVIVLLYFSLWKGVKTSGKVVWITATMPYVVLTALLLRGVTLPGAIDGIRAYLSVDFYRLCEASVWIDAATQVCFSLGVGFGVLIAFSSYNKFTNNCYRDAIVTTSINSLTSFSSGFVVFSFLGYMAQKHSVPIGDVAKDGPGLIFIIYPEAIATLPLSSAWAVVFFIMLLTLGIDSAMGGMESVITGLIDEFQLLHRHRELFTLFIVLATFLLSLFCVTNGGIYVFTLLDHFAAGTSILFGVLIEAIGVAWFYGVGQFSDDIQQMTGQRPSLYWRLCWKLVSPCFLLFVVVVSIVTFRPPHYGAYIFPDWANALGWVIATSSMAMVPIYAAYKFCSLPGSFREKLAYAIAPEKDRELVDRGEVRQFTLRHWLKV

Key:
Assay type in all cases: cell-based
[1] = target: recombinant human serotonin transporter expressed in HEK-293 cells (Homo sapiens, UniProt P31645); test: Serotonin functional uptake assay for human reuptake transporter; details: read-out: hSERT (IC50 nM); functional uptake of serotonin
[2] = target: recombinant human norepinephrine transporter expressed in either HEK293 or MDCK cells (Homo sapiens, UniProt P23975); test: Norepinephrine functional uptake assay for human reuptake transporter; details: read-out: hNET (IC50 nM); functional uptake of norepinephrine
[3] = target: recombinant human dopamine transporter expressed in either CHO-K1 or HEK293 cells (Homo sapiens, UniProt Q01959); test: Dopamine functional uptake assay for human reuptake transporter; details: read-out: hDAT (IC50 nM); functional uptake of dopamine

Measured: IC50

O[C@@H]1CNCC1C1(c2ccc(Cl)c(Cl)c2)CCCC1 (stereo partly drawn)
< 100 nM: [1] | [2] | [3]
